The assay concerns BT474C1-Luci Mono1 SC xenograft. Kind of assay: SC (subcutaneous) BT474C1-Luci Mono1 xenograft model. The class given is in vivo, nude mice. The settings on record: T-DXd alone 10 mg/kg once weekly. Here is the method:
Tumor cell suspension at 5 × 10^6 were injected subcutaneously in a total volume of 0.2 ml (1:1 with ECM Gel) into each mouse. 17β-ESTRADIOL (90-day release, 0.36 mg/pellet) were implanted 24 hrs before cells were injected subcutaneously. Tumor nodules were measured in two dimensions with caliper and the tumor volume was calculated using the following formula: tumor volume = (length × width^2) × 0.5. Tumor-bearing mice were randomized into different treatment groups when the mean tumor volume reached around 150 mm^3.

As to T-DXd [reference compound], the antitumor efficacy result is “complete tumor remission”.

For the origin of these results see PMC10327353 (Breast Cancer Research : BCR, 2023).
